Laboratory results from publication PMC12264551 (Molecular Pharmacology, 2025).

Protein sequences, listed by entry. Tags and fused reporters are not part of them. Residues count along the entry.
UniProt P32241, 31-457: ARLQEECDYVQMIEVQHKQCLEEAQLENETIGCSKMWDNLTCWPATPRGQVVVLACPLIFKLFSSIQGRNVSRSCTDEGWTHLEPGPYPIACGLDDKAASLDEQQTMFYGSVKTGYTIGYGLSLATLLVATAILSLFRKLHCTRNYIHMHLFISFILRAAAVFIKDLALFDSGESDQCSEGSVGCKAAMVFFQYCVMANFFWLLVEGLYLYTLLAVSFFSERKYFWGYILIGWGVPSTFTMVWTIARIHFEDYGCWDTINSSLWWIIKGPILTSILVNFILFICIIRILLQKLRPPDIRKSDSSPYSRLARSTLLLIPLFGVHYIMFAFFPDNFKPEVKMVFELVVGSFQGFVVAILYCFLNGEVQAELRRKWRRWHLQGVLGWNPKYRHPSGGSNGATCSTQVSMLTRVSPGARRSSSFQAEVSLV

Biological target: VPAC1R (Homo sapiens, UniProt P32241)
Assay: Live cell cAMP accumulation (GloSensor), COS-7 cells transfected with VPAC1R
Assay type: cell-based
Parameters: host or cells: COS-7
Details: VIP + vehicle, Fig. 6E, fraction of greatest slope, ± SEM, n = 3-5

Compound: CC[C@H](C)[C@H](NC(=O)[C@H](CO)NC(=O)[C@H](CC(N)=O)NC(=O)[C@H](CC(C)C)NC(=O)[C@H](Cc1ccc(O)cc1)NC(=O)[C@H](CCCCN)NC(=O)[C@H](CCCCN)NC(=O)[C@@H](NC(=O)[C@H](C)NC(=O)[C@H](CCSC)NC(=O)[C@H](CCC(N)=O)NC(=O)[C@H](CCCCN)NC(=O)[C@H](CCCNC(=N)N)NC(=O)[C@H](CC(C)C)NC(=O)[C@H](CCCNC(=N)N)NC(=O)[C@@H](NC(=O)[C@H](Cc1ccc(O)cc1)NC(=O)[C@H](CC(N)=O)NC(=O)[C@H](CC(=O)O)NC(=O)[C@@H](NC(=O)[C@H](Cc1ccccc1)NC(=O)[C@@H](NC(=O)[C@H](C)NC(=O)[C@H](CC(=O)O)NC(=O)[C@H](CO)NC(=O)[C@@H](N)Cc1c[nH]cn1)C(C)C)[C@@H](C)O)[C@@H](C)O)C(C)C)C(=O)N[C@@H](CC(C)C)C(=O)N[C@@H](CC(N)=O)C(N)=O [VIP, vasoactive intestinal peptide]
- Normalized Maximum: 0.95 ± 0.01
